Only a part is listed here, and it is no random draw. Some of these compounds have results that are not shown, active ones among them. The source made the active and inactive calls. Rule as the data show it: active = inhibition above about 11%; inactive = the rest.

Amino acid sequences for entries named in this document (tags omitted).
UniProt Q01970, whole entry: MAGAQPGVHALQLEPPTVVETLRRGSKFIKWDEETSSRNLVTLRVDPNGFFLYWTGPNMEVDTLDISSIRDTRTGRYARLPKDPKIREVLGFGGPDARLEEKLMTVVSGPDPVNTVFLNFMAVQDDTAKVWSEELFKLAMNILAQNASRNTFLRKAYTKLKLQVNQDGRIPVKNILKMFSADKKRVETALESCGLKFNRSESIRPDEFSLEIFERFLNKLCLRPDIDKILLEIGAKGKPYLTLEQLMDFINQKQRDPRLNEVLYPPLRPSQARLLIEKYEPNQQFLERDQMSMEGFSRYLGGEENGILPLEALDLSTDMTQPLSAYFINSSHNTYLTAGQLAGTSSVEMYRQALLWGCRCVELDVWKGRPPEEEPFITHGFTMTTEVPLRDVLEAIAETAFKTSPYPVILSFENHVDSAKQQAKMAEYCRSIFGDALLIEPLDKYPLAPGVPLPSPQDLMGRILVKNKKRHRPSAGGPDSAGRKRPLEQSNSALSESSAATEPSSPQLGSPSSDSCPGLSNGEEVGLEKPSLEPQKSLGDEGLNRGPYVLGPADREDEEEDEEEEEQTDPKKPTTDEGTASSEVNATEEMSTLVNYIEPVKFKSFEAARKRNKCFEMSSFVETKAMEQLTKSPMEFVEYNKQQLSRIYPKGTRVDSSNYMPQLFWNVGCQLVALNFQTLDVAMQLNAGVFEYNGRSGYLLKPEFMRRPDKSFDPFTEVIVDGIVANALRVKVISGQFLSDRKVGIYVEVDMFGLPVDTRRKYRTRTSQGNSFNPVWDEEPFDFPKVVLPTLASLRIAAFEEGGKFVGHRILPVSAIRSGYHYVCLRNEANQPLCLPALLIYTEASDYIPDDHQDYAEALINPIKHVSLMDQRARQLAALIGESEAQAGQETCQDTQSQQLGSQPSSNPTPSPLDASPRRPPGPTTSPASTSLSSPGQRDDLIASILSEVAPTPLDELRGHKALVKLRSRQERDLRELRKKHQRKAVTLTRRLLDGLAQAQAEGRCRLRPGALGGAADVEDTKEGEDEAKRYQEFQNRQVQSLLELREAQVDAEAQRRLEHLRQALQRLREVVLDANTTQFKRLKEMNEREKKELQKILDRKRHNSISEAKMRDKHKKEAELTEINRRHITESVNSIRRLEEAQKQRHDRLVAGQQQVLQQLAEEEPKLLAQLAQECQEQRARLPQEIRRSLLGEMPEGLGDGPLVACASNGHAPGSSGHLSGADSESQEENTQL

This assay addresses 1-phosphatidylinositol 4,5-bisphosphate phosphodiesterase beta-3 (Homo sapiens) (UniProt Q01970). Kind of assay: phospholipase C beta3 enzyme inhibition – biochemical, fluorescence, primary screen (AID 720704).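 Also: 0% = median of compound wells on plate and 100% = full blocker control.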 The following applies: Purified PLC-beta3, fluorogenic substrate, at 12.2 µM, active compounds read high.
Broadly, the inhibition is the change of the read-out against control, counted positive when it falls. `CN(C)c1ccc(C(=O)NCC2(N(C)C)CCCCC2)cc1`: the inhibition is inactive: -7.15%.
`CN(C)C1CCCC1OC(=O)C(O)(c1ccccc1)c1ccccc1` (stereo unspecified): the inhibition is inactive: 0.68%.
In the case of `Cc1ccccc1C(=O)NCC1(N2CCCCC2)CCCCC1`, the inhibition is inactive: 3.11%.
As to `COc1ccc(C(=O)NCC2(N(C)C)CCCCC2)cc1`, the inhibition is inactive: -2.69%.
Turning to `O=C(NCC1(N2CCCCC2)CCCCC1)c1cccc(Br)c1`, the inhibition is inactive: -3.53%.
The figure for `CCN1CCCC(OC(=O)C2(O)c3ccccc3C=Cc3ccccc32)C1` (stereo unspecified) is inactive: 4.74%; for `Cc1cc(C(=O)NCC2(N3CCCCC3)CCCCC2)ccc1[N+](=O)[O-]` it is inactive: -7.26%.
Turning to `O=C(NCC1(N2CCCCC2)CCCCC1)c1cc(F)c(F)cc1Cl`, the inhibition was inactive: -2.69%.
On to `C=CCN1CCN(CCOC(=O)C(O)(c2ccccc2)c2ccccc2)CC1`, for which the inhibition is inactive: 2.36%.
The figure for `CN1[C@@H]2CC[C@H]1CC(OC(=O)C(O)(c1ccccc1)c1ccccc1)C2` (stereo partly specified) is inactive: -1.83%.
The figure for `O=C(NCC1(N2CCCCC2)CCCCC1)c1cc([N+](=O)[O-])ccc1Cl` is inactive: -1.9%; for `Cc1ccc(C(=O)NCC2(N3CCCCC3)CCCCC2)cc1` it is inactive: -5.34%; for `COc1cc(SC)ccc1C(=O)NCC1(N(C)C)CCCCC1` it is inactive: -4.5%.
The figure for `CCN(CC)CC(C)C(C)OC(=O)C(O)(c1ccccc1)c1ccccc1` (stereo unspecified) is inactive: 5.01%.
For the compound `CC(C)N1C(=O)CC2(CCN(CCOC(=O)C(O)(c3ccccc3)c3ccccc3)CC2)C1=O`, the inhibition is inactive: 1.21%.
`O=C(OC1CN2CCC1CC2)C(CO)(c1ccccc1)c1ccccc1` (stereo unspecified): the inhibition is inactive: 2.39%.
As for `O=C(OCCN1CCCC1)C(O)(c1ccccc1)c1ccccc1`, the inhibition was inactive: -4.21%.
For `CC(C)Oc1ccc(C(=O)NCC2(N(C)C)CCCCC2)cc1`, the inhibition is inactive: -8.12%.
As to `CN(C)c1cccc(C(=O)NCC2(N(C)C)CCCCC2)c1`, the inhibition is inactive: -89%.
Take `C=C(C)C#CC(O)(C(=O)OC1CCN(C)CC1)c1ccccc1` (stereo unspecified): the inhibition was inactive: -3.01%.
The figure for `COc1ccc(Br)c(C(=O)NCC2(N3CCCCC3)CCCCC2)c1` is inactive: -9.44%; for `COc1cc(C(=O)NCC2(N(C)C)CCCCC2)c([N+](=O)[O-])cc1OC` it is inactive: -6.18%.
With `CN(C)C1(CNC(=O)c2ccc(Br)cc2)CCCCC1`, the inhibition is inactive: -6.82%.
The figure for `O=C(NCC1(N2CCCCC2)CCCCC1)c1cccc(Cl)c1` is inactive: -7.74%.
The figure for `COc1ccc(Cl)cc1C(=O)NCC1(N(C)C)CCCCC1` is inactive: 1.45%.
On to `COc1cccc(C(=O)NCC2(N3CCCCC3)CCCCC2)c1`, for which the inhibition was inactive: 1.67%.
